The source of these data is publication PMC3052287 (Psychopharmacology, 2010).

Protein sequences, listed by entry. Tags and fused reporters are not part of them.
UniProt P34969, whole entry: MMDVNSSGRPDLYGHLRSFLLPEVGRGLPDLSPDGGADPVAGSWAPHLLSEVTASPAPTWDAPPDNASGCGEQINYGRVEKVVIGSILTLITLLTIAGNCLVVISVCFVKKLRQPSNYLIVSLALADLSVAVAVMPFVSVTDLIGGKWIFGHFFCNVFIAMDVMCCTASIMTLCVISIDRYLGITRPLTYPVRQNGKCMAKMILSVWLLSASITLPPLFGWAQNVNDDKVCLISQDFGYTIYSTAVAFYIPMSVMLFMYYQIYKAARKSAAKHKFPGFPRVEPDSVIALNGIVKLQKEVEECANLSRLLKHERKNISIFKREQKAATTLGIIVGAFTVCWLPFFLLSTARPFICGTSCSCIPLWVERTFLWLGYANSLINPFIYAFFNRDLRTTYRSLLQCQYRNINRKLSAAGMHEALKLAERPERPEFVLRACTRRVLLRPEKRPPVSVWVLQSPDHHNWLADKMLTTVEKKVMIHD

The target in this test is h5-HT7 receptor (Homo sapiens, UniProt P34969).

Regarding [^3H]risperidone, the Bmax (estimated from homologous competition curve data) is 3,300 fmol/mg protein. Also, under “intact cells, 1 nM radioligand”, the “absolute level of binding” value is given as 1,200 fmol/mg. Also, the “wash-resistant (pseudo-irreversibly bound) share of specific binding” value (intact cells, 1 nM radioligand, thorough washing) is given as ~ 50%. Moreover, under “preliminary studies, TCA precipitates the receptor”, the “release of wash-resistant bound radioligand by TCA” value is “could be released by treatment with TCA”.
